In one assay the target is opiate receptors (Rattus norvegicus, UniProt P34975). The settings on record: read-out: Opiate.
Another assay addresses T1, σ1 receptors (Cavia porcellus, UniProt Q60492).
T1 construct: Crude P2 membranes were prepared from guinea pig brain, rat brain, or rat liver; from tissue; host or cells: guinea pig brain (crude P2 membranes)
The experiment in a line: σ1 receptor competition binding. The settings on record: Table 1; [3H](+)-pentazocine, guinea pig brain; mean±SEM, minimum of two independent assays.

Chains of the proteins cited; added tags and fusions are not shown. Lines headed by an entry give the natural chain unless they say otherwise; changes in a name come on top.
UniProt P34975: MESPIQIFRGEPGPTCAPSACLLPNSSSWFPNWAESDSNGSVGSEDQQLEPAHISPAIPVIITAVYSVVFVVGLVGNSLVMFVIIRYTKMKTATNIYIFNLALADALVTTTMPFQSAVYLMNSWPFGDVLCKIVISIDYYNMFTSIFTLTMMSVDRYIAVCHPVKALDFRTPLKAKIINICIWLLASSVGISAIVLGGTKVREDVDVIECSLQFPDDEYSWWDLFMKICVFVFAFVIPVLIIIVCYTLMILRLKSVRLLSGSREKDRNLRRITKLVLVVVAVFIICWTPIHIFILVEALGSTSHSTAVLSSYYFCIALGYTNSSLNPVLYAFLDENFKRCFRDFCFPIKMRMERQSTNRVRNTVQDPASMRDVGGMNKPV
UniProt Q60492, whole entry: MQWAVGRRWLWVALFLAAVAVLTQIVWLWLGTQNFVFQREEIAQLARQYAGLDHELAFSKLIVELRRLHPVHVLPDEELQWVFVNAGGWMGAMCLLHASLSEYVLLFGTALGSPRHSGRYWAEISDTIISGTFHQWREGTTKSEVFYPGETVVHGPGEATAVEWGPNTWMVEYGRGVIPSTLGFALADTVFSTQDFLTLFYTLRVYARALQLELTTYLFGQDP

The source of these data is US20030171347A1, “Sigma receptor antagonists having anti-cocaine properties and uses thereof” (priority 1998, published 2003).

As for `CN(C)CCN(C)CCc1ccc(Cl)c(Cl)c1` [BD1047], at opiate receptors, the IC50 is above 10 µM.
The same measure, in the same setting: to `CCCN(CCc1ccc(Cl)c(Cl)c1)CCN1CCCCC1` [BD1069] belongs above 10 µM.
As a reminder, the Ki is the equilibrium dissociation constant of an inhibitor or competing ligand from its target. A lower Ki goes with a stronger hold on the target. As for `COc1ccccc1CC(=O)N(C)CCN1CCCC1` [YZ-008], affinity on σ1 receptors was put at a Ki of 5.46 ± 0.686 µM.
